From US12084523B2, “Ubiquitin high affinity cyclic peptides and methods of use thereof” (TECHNION RESEARCH & DEVELOPMENT FOUNDATION LIMITED, priority 2018, dated 2024)
Like-named read-outs stand apart in the source and are kept apart here.

How the values were obtained:
[1] = molecular target: T1, K48-Ub2 (Homo sapiens, UniProt P0CG47); assay: SPR binding of cyclic peptides to K48-linked di-ubiquitin
T1 construct: solid phase peptide synthesis of Ub monomers (modified as required); made in house; host or cells: total chemical synthesis (SPPS, isopeptide ligation, desulfurization)

[2] = molecular target: T2, ^K48Ub4 (Homo sapiens, UniProt P0CG47); assay: SPR binding of cyclic peptides to K48-linked tetra-ubiquitin
T2 construct: solid phase peptide synthesis of Ub monomers (modified as required); made in house
Description: Surface Plasmon Resonance (SPR)
The interactions between cyclic peptides: U2i, U2ii, U4i, U4ix and Ub1, ^K48Ub2 and ^K48Ub4, were determined using BIACORE T100 instrument (GE healthcare) equipped with a biotin CAPture kit Series S chip. The buffer in all experiments contained 50 mM HEPES, pH 7.3, 150 mM NaCl, 0.05% Tween20, 2 mM DTT with 0.2% DMSO. Biotinylated Ub1, ^K48Ub2 and ^K48Ub4 were loaded to approximately equal molar amounts on the SPR chip, and various concentrations of cyclic peptides were flowed over at […] for 120 sec, before initiation of dissociation by flowing buffer over at […] for further 700 sec. Traces were fit to the simplest, two-state model for binding. Association was fit to a single exponential assuming pseudo-first order conditions, whereas the dissociation trace was fit to single exponential plus a drift term. Finally, due to the poor quality of the traces for U4ix binding ^K48Ub2, the amplitude of the association kinetic trace at different concentrations of peptide was fit to estimate the lower bound for KD.
To test the binding and specificity of the Ub2i, Ub2ii, Ub4i, Ub4ix, Ub4_a and Ub4_e cyclic peptides, each were prepared by chemical synthesis for Surface Plasmon Resonance (SPR) analysis (FIGS. 1E and 29). Each peptide was flowed over Ub1, ^K48Ub2 and […] immobilized on SPR chips. […]

[3] = Table 2, K48-Ub2, SPR, anchor M* as given
[4] = read-out: KD / binding affinity, text and figure legend, K48-Ub2

Substance | Kd [1, 3] | Kd [1, 4] | other results
M*GWFDDLYLFYAY-CG [mClBz_V10Y] | 5.6 nM |  | 
M*GWFDDEYLFVAY-CG [J08_mClBz_L6E] |  | 5 nM | 
*GWFDDLYLYVAYC [J08_mClBz_F9Y] |  | 0.58 nM | Kd ([1]; read-out: dimeric and/or tetrameric Ub binding affinity KD, range stated in the description, 'as exemplified'): 0.55 to 0.65 nM
M*-WYDREYYYLGYGCG [J01_mClBz] | 141 nM |  | 
M*GWFDDEYWFYAY-CG [mClBz_L6E_L8W_V10Y] | 7.2 nM |  | Kd ([1]; Table 3, SPR-measured affinities of J08 analogue peptides, K48-Ub2): 7.6 nM
M*GWFDNLYWYITH-CG [J02_mClBz] | 16 nM |  | 
M*GWFDNLYWYITH-CG [J02_pClBz] | 48 nM |  | 
*FQLWOHAIALCG [Ub4_e] |  |  | Kd ([1]; SPR, target ^K48Ub2): > 20000 nM
*FQYWOYATGVCG [Ub4_a] |  |  | Kd ([1]; SPR, target ^K48Ub2): > 900 nM; Kd ([1]; read-out: dimeric Ub binding affinity KD, range stated in the description, 'as exemplified'): > 900 nM; Kd ([2]; SPR, target ^K48Ub4): 8 nM; Kd ([2]; read-out: tetrameric Ub binding affinity KD, range stated in the description, 'as exemplified'): 6 to 10 nM
M*GWFDDLYWFVAY-CG [J08_mClBz_L8W] |  | 1.2 nM | 
M*GWFDDLYLFVAY-CG [J08_pClBz] | 234 nM |  | 
M*GWFDDLYLFVAY-CG [J08_mClBz] |  | 10 nM | 
